This is an account of results in EP2078717A1, “6-Pyrimidinyl-pyrimid-2-one derivative” (sanofi-aventis, priority 2008, dated 2009).

Structures are written as SMILES. pIC50: −log10 of the molar value.

The series can be described thus: Inhibitory activity on CYP2D6 (human recombinant CYPs, luciferin substrate).

The pIC50 is −log10 of the IC50, conventionally taken in molar units. As for `Cn1c(N2CCOC(c3ccc(-c4ccoc4)cc3)C2)nc(-c2ccncn2)cc1=O` (stereo not shown) [compound 3, 2-[2-(4-Furan-3-yl-phenyl)-morpholin-4-yl]-1-methyl-1H-[4,4']bipyrimidinyl-6-one], the negative-log IC50 (pIC50) is 5.64.
